Data reported in ChEMBL document CHEMBL2021856 (ACS Med Chem Lett, 2011).
Active and inactive are the calls of the source.

By UniProt entry, the sequences of proteins in these tests, tags left out. Where a name states a change or a piece, a line headed by the entry shows the natural chain unless it says otherwise.
UniProt P28223, whole entry: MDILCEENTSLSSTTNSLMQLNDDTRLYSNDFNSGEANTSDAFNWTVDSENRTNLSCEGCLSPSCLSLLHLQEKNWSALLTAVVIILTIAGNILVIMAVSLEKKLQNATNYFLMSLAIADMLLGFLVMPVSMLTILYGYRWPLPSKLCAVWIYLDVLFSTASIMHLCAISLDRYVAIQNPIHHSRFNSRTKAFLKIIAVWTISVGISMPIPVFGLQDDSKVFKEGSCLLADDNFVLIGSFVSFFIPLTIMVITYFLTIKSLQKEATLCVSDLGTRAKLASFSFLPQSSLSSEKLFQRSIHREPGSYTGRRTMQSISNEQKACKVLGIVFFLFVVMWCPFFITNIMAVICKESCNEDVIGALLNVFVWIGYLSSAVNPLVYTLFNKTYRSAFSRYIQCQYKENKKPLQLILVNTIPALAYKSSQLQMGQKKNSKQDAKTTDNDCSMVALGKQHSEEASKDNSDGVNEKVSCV
UniProt P41595, whole entry: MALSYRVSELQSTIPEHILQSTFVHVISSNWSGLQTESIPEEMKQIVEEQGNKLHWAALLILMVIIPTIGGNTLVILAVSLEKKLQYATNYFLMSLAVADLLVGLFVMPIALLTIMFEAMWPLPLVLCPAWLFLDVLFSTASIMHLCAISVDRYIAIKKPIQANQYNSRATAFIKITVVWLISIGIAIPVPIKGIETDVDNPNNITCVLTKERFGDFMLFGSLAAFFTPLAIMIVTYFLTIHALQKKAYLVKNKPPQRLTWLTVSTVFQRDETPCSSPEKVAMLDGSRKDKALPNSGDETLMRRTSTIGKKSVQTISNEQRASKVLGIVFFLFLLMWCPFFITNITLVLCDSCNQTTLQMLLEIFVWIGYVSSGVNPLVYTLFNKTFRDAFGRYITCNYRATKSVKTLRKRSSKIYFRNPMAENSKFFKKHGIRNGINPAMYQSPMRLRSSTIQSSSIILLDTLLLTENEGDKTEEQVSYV
UniProt P28335: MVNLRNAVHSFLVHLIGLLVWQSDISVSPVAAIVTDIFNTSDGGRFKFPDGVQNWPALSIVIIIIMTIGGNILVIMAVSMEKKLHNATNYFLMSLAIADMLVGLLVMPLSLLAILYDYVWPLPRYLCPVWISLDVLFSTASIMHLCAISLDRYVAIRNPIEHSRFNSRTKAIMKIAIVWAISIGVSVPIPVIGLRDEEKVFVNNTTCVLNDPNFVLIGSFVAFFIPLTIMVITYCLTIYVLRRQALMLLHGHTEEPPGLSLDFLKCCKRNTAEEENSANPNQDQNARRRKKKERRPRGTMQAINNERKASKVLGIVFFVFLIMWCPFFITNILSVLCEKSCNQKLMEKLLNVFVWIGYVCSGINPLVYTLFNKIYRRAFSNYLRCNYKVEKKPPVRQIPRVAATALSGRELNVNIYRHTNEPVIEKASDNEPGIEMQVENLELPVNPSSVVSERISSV

What was measured:
Type in all cases: functional, cell-based
[1] = target: 5-hydroxytryptamine receptor 2A (Homo sapiens, UniProt P28223); assay: Agonist activity at human 5HT2A receptor expressed in HEK293 cells assessed as calcium flux at 10 uM measured every sec for 3 mins by FLIPR assay
[2] = target: 5-hydroxytryptamine receptor 2B (Homo sapiens, UniProt P41595); assay: Agonist activity at human 5HT2B receptor expressed in HEK293 cells assessed as calcium flux at 10 uM measured every sec for 3 mins by FLIPR assay
[3] = target: 5-hydroxytryptamine receptor 2C (Homo sapiens, UniProt P28335); assay: Agonist activity at human 5HT2C receptor expressed in HEK293 cells assessed as calcium flux at 10 uM measured every sec for 3 mins by FLIPR assay

Measured: Activity

CCCCOc1ccc(C)cc1[C@H]1C[C@@H]1CN.Cl (racemic)
inactive: all assays above
